# ChEMBL document CHEMBL3112556, “Novel GlyT1 inhibitor chemotypes by scaffold hopping. Part 2: development of a [3.3.0]-based series and other piperidine bioisosteres” (Bioorg Med Chem Lett, 2014)
# Molecular target: T1, Sodium- and chloride-dependent glycine transporter 1 (Homo sapiens, UniProt P48067)
# T1 sequence (P48067 whole entry): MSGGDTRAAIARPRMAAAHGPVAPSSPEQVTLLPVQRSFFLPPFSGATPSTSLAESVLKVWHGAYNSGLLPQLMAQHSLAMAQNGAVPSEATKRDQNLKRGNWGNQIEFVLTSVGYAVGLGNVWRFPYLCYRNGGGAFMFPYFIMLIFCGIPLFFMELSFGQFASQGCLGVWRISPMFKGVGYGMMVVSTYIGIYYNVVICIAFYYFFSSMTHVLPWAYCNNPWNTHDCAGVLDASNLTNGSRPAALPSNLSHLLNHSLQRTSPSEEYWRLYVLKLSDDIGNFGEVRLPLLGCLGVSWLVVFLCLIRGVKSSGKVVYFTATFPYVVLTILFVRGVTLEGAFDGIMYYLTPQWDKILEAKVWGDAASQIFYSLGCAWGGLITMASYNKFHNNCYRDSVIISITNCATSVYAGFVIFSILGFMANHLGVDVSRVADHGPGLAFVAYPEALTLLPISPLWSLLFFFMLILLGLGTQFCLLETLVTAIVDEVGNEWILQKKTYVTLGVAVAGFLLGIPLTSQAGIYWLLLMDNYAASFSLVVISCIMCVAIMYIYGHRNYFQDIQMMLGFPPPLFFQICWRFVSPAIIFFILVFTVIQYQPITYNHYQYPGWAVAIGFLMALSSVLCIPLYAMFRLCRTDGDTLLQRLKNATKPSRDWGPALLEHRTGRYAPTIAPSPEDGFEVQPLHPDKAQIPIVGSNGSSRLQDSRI
# Test: Inhibition of GlyT1 (unknown origin) assessed as [14C]-glycine transport
row,SMILES,IC50 [nM]
1,Cn1cnc(S(=O)(=O)N2CC([C@H](NC(=O)c3ccc(Cl)cc3Cl)c3ccccn3)C2)c1,39
2,Cn1cnc(S(=O)(=O)N2CC([C@@H](NC(=O)c3ccc(Cl)cc3Cl)c3ccccn3)C2)c1,900
3,Cn1cnc(S(=O)(=O)N2C[C@H]3CC[C@@H](NC(=O)c4ccc(Cl)cc4Cl)[C@H]3C2)c1,433
4,Cn1cnc(S(=O)(=O)N2C[C@@H]3CC[C@H](NC(=O)c4ccc(Cl)cc4Cl)[C@@H]3C2)c1,> 10000
